Data on one substance can be found in patent publication US9744191B2, “Antimicrobial compositions and methods” (Yale University, priority 2012, dated 2017).

Read-outs that look alike come from different tables or passages of the source.

The conditions of this series: millimolar concentrations (1 to 10 mM) in YPD medium.

cyclic hepta-arginine [NOVEXATIN®]: the “solubility in culture medium” value is “becomes an issue”. Also, the “solubility in culture medium” value (listed as Novexatin®) is “appeared to precipitate”.
